Tested on: S. cerevisiae
Assay: Fatty acid competition (antagonism) on agar plates
Details: 28 μg/ml fatty acid in agar

## O=C([O-])CCCCCCC/C=C\C#CC#Cc1ccco1.[Na+] [Compound V″, sodium (Z)-14-(furan-2-yl)tetradeca-9-en-11,13-diynoate]
  effect of oleic acid / stearic acid on susceptibility: oleic acid (but not stearic acid) had an antagonistic effect

Source: patent US8722910B2, “Diyne compositions” (Evolva AG, priority 2009, dated 2014)
